The results in this text go back to patent US9527820B1, “Diethylammonium salts of phenyl-substituted thiobarbituric acid as anti-diabetic agents” (KING SAUD UNIVERSITY, priority 2016, dated 2016).

What is called IC50 is the point on the concentration scale where inhibition reaches its midpoint.

The test deals with α-glucosidase. Description: in vitro α-glucosidase enzyme inhibition activity. The settings on record: read-out: α-Glucosidase Inhibition (IC50 in μM), ± SEM.

For “Diethylammonium 5-((3-bromophenyl)(1,3-diethyl-6-hydroxy-4-oxo-2-thioxo-1,2,3,4-tetrahydropyrimidin-5-yl)methyl)-1,3-diethyl-6-oxo-2-thioxo-1,2,3,6-tetrahydropyrimidin-4-olate [Compound 3e]”, the IC50 turned out to be 31.5 ± 0.16 µM.
